The results in this text go back to patent publication US20060052435A1, “Selective dopamin d3 receptor agonists for the treatment of sexual dysfunction” (priority 2001, published 2006).

The chains behind the UniProt entries cited, without tags or fusion partners.
UniProt P35462, whole entry G9S: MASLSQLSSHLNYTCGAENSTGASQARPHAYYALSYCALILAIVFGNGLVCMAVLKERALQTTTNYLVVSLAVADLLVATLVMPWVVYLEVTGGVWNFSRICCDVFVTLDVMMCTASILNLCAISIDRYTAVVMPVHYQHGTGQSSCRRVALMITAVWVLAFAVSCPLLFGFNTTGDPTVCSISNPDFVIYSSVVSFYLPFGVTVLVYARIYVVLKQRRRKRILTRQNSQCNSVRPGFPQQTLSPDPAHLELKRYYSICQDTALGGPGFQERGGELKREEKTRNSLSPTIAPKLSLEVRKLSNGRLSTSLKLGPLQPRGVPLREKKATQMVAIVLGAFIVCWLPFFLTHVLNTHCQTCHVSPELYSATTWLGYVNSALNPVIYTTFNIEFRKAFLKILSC

The target in assay [1] is T1, human dopamine D3 receptor (Homo sapiens, UniProt P35462, G9S).
Assay [2] has as its target T1, human dopamine D3 receptor. The assay is described as follows: cell-based.

SMILES strings stand for the structures.

On to `CN1CCc2cccc3c2[C@H]1Cc1ccc(O)c(O)c1-3` [Apomorphine], for which, in assay [1], the Dopamine receptor preference result is recorded as “Balanced” and the “functional D2/D3 preference” value was “balanced agonists”.
As a reminder, the EC50 is the concentration needed to bring the measured effect to its halfway point. Higher therefore signals a need for much substance. As to `CN[C@@H]1Cc2cccc3[nH]c(=O)n(c23)C1.O=C(O)/C=C\C(=O)O` [PNU-95666], the EC50 in assay [2] is 172 nM.
